Sequences of proteins named here, by UniProt entry; tags and fusion partners are left off. A change or cut given only in a name is not applied to a line headed by its entry.
UniProt Q14191: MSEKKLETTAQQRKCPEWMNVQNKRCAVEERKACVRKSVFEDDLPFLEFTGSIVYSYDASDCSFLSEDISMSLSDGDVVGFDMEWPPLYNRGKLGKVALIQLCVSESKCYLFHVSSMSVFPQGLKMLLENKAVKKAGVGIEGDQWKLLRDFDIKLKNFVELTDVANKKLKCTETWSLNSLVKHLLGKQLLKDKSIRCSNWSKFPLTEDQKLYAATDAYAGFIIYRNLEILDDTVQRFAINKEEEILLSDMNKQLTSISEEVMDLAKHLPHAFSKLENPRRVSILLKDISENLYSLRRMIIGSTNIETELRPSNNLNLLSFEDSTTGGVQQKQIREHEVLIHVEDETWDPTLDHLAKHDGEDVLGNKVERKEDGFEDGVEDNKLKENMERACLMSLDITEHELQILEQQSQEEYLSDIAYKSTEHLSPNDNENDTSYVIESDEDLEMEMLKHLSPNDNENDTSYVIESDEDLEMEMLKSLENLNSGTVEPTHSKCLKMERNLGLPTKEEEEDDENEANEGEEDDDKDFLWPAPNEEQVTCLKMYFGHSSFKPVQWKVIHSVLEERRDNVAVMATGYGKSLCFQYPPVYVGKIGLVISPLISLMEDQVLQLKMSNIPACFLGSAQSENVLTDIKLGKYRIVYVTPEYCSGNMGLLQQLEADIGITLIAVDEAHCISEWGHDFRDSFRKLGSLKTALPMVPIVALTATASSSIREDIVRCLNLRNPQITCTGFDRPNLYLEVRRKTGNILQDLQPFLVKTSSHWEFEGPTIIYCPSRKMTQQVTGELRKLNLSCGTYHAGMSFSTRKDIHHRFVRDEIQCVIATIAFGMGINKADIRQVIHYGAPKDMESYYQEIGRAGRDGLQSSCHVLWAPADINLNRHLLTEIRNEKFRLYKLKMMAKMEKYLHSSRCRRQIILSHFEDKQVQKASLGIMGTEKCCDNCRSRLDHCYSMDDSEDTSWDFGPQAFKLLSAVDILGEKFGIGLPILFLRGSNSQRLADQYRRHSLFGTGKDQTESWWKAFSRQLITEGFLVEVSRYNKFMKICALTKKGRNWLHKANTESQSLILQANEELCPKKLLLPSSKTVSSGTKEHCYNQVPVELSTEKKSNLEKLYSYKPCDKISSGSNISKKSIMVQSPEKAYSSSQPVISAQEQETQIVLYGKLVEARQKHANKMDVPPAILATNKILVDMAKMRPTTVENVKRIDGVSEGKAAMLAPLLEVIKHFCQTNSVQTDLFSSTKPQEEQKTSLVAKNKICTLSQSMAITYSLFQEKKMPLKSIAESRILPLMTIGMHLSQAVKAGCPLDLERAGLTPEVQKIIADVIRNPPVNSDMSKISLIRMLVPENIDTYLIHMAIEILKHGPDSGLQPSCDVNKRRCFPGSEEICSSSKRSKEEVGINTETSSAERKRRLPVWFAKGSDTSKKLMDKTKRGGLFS

According to patent US20250034136A1 (Nimbus Wadjet, Inc., priority 2023, published 2025):

target: WRN (BV08), human Werner helicase (Uniprot Q14191, amino acids 517-1235 with L1074F point mutation) (Homo sapiens (Human), UniProt Q14191, L1074F); assay: WRN (BV08) ADP-Glo assay; type: biochemical; conditions: class symbols A-E, read-out: ADP-Glo_hWRN_IC50
Description: Bovine skin gelatin (BSG), dimethyl sulfoxide (DMSO), Pluronic F-127 and tris(2-carboxyethyl)phosphine hydrochloride solution (TCEP) were purchased from Sigma-Aldrich (St. Louis, MO) at the highest level of purity possible. […] DNA strands were annealed by heating to 95° C. for 5 minutes followed by slow cooling to room temperature. Compounds in 100% DMSO (0.1 μl) were spotted into a 384-well white polystyrene Optiplate-384 (Perkin Elmer; Waltham, MA) assay plate using a LabCyte Echo 550 (Agilent; Santa Clara, CA). DMSO (0.1 μl) was added to columns 12, rows A-H and column 24, rows I-P for the maximum signal control. […] Compounds/DMSO were preincubated for 15 minutes at 25° C. with 5 μl 2×WRN (BV08), prepared as described below, in assay buffer containing 20 mM Bicine (pH=7.5), 1 mM MgCl2, 10 mM KCl, 0.1% Pluronic F-127, 0.005% BSG, 1 mM TCEP. The reaction was initiated by the addition of 5 μl 2× substrate mixture in assay buffer and incubated for 60 minutes at 25° C. The final concentrations of the assay components were 0.15 nM WRN, 5 μM ATP, and 0.1 nM DNA duplex. The final DMSO concentration was 1% and the reference compound concentration (NSC-617145) used for the minimal signal control was 20 μM. The reaction was stopped by the addition of the ADP-Glo Kit components (Promega; Madison, WI) as directed and the relative luminescence units (RLU) were read on an Envision 2104 (Perkin Elmer; Waltham, MA). % inhibition calculation:
[formula] • Where RLU=relative luminescence units, sample=signal in sample well, and MIN and MAX are the respective minimum and maximum signal controls.
[formula] • Where top and bottom are normally allowed to float but may be fixed at 100 or 0 respectively in a 3-parameter fit. Y is the % inhibition and X is the compound concentration.
Molecular Biology and virus production. […] The baculovirus from the expression plasmid WRN—BV08 was generated from transfection and amplification following the manufacturer's instructions.
Sf9 cells grown in SF900II media were infected with 1:200 WRN—BV08 P2 virus and incubated for protein expression for 72 h at 27° C. […]

IC50	Structure (SMILES)
0.005 to 0.05 µM	CCc1c(N2CCN(C(=O)c3ncnc(C)c3O)[C@H]3CC[C@@H]32)c(=O)c2nc(N(C)C)cnc2n1CC(=O)Nc1ccc(C(F)(F)F)cc1Cl (single isomer, unassigned) [I-40, N-(2-chloro-4-(trifluoromethyl)phenyl)-2-(2-(dimethylamino)-6-ethyl-7-(−5-(5-hydroxy-6-methylpyrimidine-4-carbonyl)-2,5-diazabicyclo[4.2.0]octan-2-yl)-8-oxopyrido[2,3-b]pyrazin-5(8H)-yl)acetamide]
0.005 to 0.05 µM	CCc1c(N2CCN(C(=O)c3ncnc(C)c3O)[C@H]3CC[C@H]32)c(=O)c2nc(N(C)C)cnc2n1CC(=O)Nc1ccc(C(F)(F)F)cc1Cl (racemic) [I-106, rac-N-(2-chloro-4-(trifluoromethyl)phenyl)-2-(2-(dimethylamino)-6-ethyl-7-(5-(5-hydroxy-6-methylpyrimidine-4-carbonyl)-2,5-diazabicyclo[4.2.0]octan-2-yl)-8-oxopyrido[2,3-b]pyrazin-5(8H)-yl)acetamide]
0.005 to 0.05 µM	CCc1c(N2CCN(C(=O)c3ncnc(C)c3O)C3CCC32)c(=O)c2nc(N(C)C)cnc2n1CC(=O)Nc1ccc(C(F)(F)F)cc1Cl (racemic) [I-34, rac-N-(2-chloro-4-(trifluoromethyl)phenyl)-2-(2-(dimethylamino)-6-ethyl-7-(5-(5-hydroxy-6-methylpyrimidine-4-carbonyl)-2,5-diazabicyclo[4.2.0]octan-2-yl)-8-oxopyrido[2,3-b]pyrazin-5(8H)-yl)acetamide]
